Screening data as filed in PubChem.
In the library only some 3.7% were active in any assay of this set; here they are far more common.
miR-21 FLuc: miR-21 reporter, rising signal | HeLa miR-21 FLuc reporter, luciferase, 48 h | Potency, µM (top dose mostly 38.3 µM) | 340,000 tested, under 10 active | AID 2288; active = well fitted rising curve with a large enough effect; inconclusive = small, poorly fitted or top-dose-only effect; inactive = no such curve, though single readings can be large or run the other way;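 further: miR-21 action dims this reporter so a rising signal means less miR-21 action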
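HeLa miR-21-FLuc reporter line, endogenous miR-21; 2000 cells/well in DMEM/10% FBS; compound titration up to ~40uM final, 48 h, 37 degree Celsius; luciferase detection reagent, 15 min lysis, CCD luminescence.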
p53 reactivator: mutant p53 re-activation in reporter cells. Potency, µM (series often up to 92.2 µM), usual class: activators. H1299 p53-A138V BP100-luciferase reporter, luminescence, 24 h. 320,000 compounds, 0.063% hits; also: nearly all actives have a fitted effect of over 45% in size
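p53-null H1299 cells stably carrying temperature-sensitive p53-A138V and a BP100-luciferase reporter were pinned with compounds (4-point, 1:5 series) and held 24 hrs at 37 deg C. Luminescence was read 10 min after detection reagent.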
ClpP mod: qHTS Assay for Activators of ClpP | 340,000 compounds, 1.9% hits | purified B. subtilis ClpP, FRET peptide cleavage, 20 min | AID 651965, 2013 | Potency, µM (titrated, usually from 57.5 µM); active = well fitted falling curve with a large enough effect; inconclusive = small, poorly fitted or top-dose-only effect; inactive = no such curve, though single readings can be large or run the other way; also: the source files actives as falling curves though it sought activators and does not explain the sign; nearly all actives have a fitted effect of over 65% in size
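Purified B. subtilis ClpP, 10 microg/mL final in Tris/HCl pH8 with KCl, BSA, glycerol and Tween-20, cleaved an Abz/nitrotyrosine-quenched decapeptide. Fluorescence (ex 320, em 430) was read at 0 and 20 min at room temperature. Delta was normalized to 5.8 microM ADEP and DMSO/no-enzyme controls.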
Nrf2 inh: Nrf2 pathway inhibition | A549 ARE-Fluc reporter, luciferase luminescence, 18-24 h | Potency, µM (titrated, usually from 46 µM), actives largely listed as inhibitors | 360,000 compounds, 2.1% hits; also: nearly all actives have a fitted effect of over 60% in size
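Quantitative HTS in A549 cells stably bearing an antioxidant response element-firefly luciferase construct. Inhibition of Nrf2-driven transcription was scored by luminescence after 18-24 h of compound exposure at 37 °C.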
Nrf2 ARE act: activates Nrf2 signaling; Potency, µM (doses to about 46.1 µM), actives largely listed as activators; AREc32 ARE-luciferase reporter (MCF7-derived line), luminescence, 24 h; 410,000 compounds, 0.31% hits; also: nearly all actives have a fitted effect of over 65% in size
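ARE-driven firefly luciferase activity in AREc32 cells measured after a 24 hr compound exposure at 37 deg C, using Steady-Glo reagent and a 30 min room-temperature hold.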
A549 viability: counter-screen for Nrf2 inhibitors: cytotoxicity in A549 cells | A549 ARE-Fluc cells, CellTiter-Fluor viability, 18-24 h | Potency, µM (highest dose often 46 µM), most hits filed as inhibitors | 390,000 compounds, 0.16% hits
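Cytotoxicity counterscreen: CellTiter-Fluor fluorescence was measured in A549 ARE_Fluc cells after 18-24 h of compound exposure in a concentration series. The subsequent BugLite luminescent read reports ARE-luciferase activity.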
Numbers stand for hits; 0 = inactive; ? = inconclusive; - = no result. Unless noted, calls follow the shape of the dose curve; as a rule, active = well fitted curve in the direction sought with a large enough effect; inconclusive = small, poorly fitted or top-dose-only effect, or another doubt; inactive = no such curve, though single readings can be large; an effect the other way counts as inactive or inconclusive.

SMILES | miR-21 FLuc | p53 reactivator | ClpP mod | Nrf2 inh | Nrf2 ARE act | A549 viability
CC#C[C@]1(O)CC[C@H]2[C@@H]3CCC4=CC(=O)CCC4=C3[C@@H](c3ccc(N(C)C)cc3)C[C@@]21C | 0 | 0 | 0 | 23µM | 0 | 0
COc1ccc2c(CNC3CCC(C)CC3)c(C(=O)O)n(Cc3ccccc3)c2c1 (stereo not given) | 0 | - | 0 | 0 | 0 | 0
Cc1c(O)ccc(/C=N/Nc2nc(-c3cccnc3)nc3ccccc23)c1O | 0 | 0 | 0 | 0 | 0 | 0
Cc1ccc(Nc2nc(-c3cccnc3)nc3ccccc23)cc1 | ? | 0 | - | 0 | 0 | 0
CCOC(=O)c1ccc(Nc2nc(-c3cccnc3)nc3ccccc23)cc1 | 0 | 0 | 28µM | ? | 0 | ?
Oc1ccc(/C=N/Nc2nc(-c3cccnc3)nc3ccccc23)c(O)c1 | 0 | 0 | 0 | 21µM | 0 | 0
Cc1ccccc1NC(=O)C(Cc1ccccc1)N1Cc2ccccc2C1=O (stereo not given) | 0 | - | 0 | 0 | 0 | 0
COCn1c(-c2ccc(OC)c(OC)c2)nc2ccccc21 | 0 | 0 | 28µM | ? | 0 | 0
Cc1ccc(S(=O)(=O)c2nc(NN(C)C)sc2Cl)cc1 | 0 | 0 | - | 23µM | 0 | 0
Cc1ccc(S(=O)(=O)c2nc(Nc3ccccc3C#N)sc2Cl)cc1 | 0 | 0 | 0 | 0 | 0 | 0
CCOc1ccc(NC(=O)N2CC=C(c3c[nH]c4ccccc34)CC2)cc1 | 0 | - | 0 | ? | 0 | 0
CC(=O)N1c2ccc(S(=O)(=O)N3CCC(C(=O)Nc4ccc(C)cn4)CC3)cc2CC1C (stereo not given) | 0 | 0 | 0 | 15µM | 0 | 0
CC1Cc2cc(S(=O)(=O)N3CCN(c4ccccc4F)CC3)ccc2N1C(=O)C1CC1 (stereo not given) | 0 | 0 | 0 | 15µM | 0 | 0
CC1Cc2cc(S(=O)(=O)N3CCC(C(=O)Nc4ccccn4)CC3)ccc2N1C(=O)C1CCC1 (stereo not given) | 0 | 0 | - | 15µM | 0 | 0
CC(=O)N1c2ccc(S(=O)(=O)N3CCC(C(=O)Nc4cccc(Cl)c4)CC3)cc2CC1C (stereo not given) | 0 | 0 | 0 | 2.1µM | 0 | 0
O=C(c1ccc(CS(=O)(=O)c2c(Cl)cccc2Cl)o1)N1CCN(c2ccccc2)CC1 | 0 | - | 0 | ? | 0 | 0
CC(=O)N1c2ccc(S(=O)(=O)N3CCC(C(=O)Nc4cccc(F)c4)CC3)cc2CC1C (stereo not given) | 0 | 0 | 0 | 16µM | 0 | 0
CC(=O)N1c2ccc(S(=O)(=O)N3CCC(C(=O)Nc4cccc(C)c4)CC3)cc2CC1C (stereo not given) | 0 | 0 | 0 | ? | 0 | 0
CC1Cc2cc(S(=O)(=O)CCC(=O)Nc3ccc(Cl)cc3F)ccc2N1C(=O)C1CC1 (stereo not given) | 0 | - | 0 | 13µM | 0 | 0
CC(=O)N1c2ccc(S(=O)(=O)N3CCCC(C(=O)Nc4ccc(F)cc4)C3)cc2CC1C (stereo not given) | 0 | - | 0 | 18µM | 0 | 0
Cc1cc(F)ccc1NC(=O)CCS(=O)(=O)c1ccc2c(c1)CC(C)N2C(=O)C1CC1 (stereo not given) | 0 | - | 0 | 0 | 0 | 0
CC(=O)c1ccc(N2CCN(C(=O)C3CCN(S(=O)(=O)c4ccc5c(c4)CC(C)N5C(C)=O)CC3)CC2)cc1 (stereo not given) | 0 | 0 | 0 | 15µM | 0 | 0
Cc1ccc(/C=C/c2onc(C)c2S(=O)(=O)N2CCC(C(=O)N3CCC(N(C)C(C)C)CC3)CC2)cc1 | ? | - | 0 | - | 0 | 0
CCOC(=O)N1CCN(C(=O)CN(c2cc(C)ccc2OC)S(=O)(=O)c2ccc(C)cc2)CC1 | 0 | - | 0 | 0 | 0 | 0
Cc1ccc(OCC(=O)Nc2nnc(SCc3cc(=O)c4ccccc4[nH]3)s2)cc1C | 0 | - | 0 | - | 0 | 0
NC(=O)Nc1ccc(/C=C2\C=Cc3ccccc32)cc1 | - | - | 0 | - | - | -
